In patent US5071837A one finds IC50 data, which are given here for one compound.

Sequences of proteins named here, by UniProt entry; tags and fusion partners are left off. Residues count along the entry.
UniProt Q6DLS0, 67-406 limits assumed: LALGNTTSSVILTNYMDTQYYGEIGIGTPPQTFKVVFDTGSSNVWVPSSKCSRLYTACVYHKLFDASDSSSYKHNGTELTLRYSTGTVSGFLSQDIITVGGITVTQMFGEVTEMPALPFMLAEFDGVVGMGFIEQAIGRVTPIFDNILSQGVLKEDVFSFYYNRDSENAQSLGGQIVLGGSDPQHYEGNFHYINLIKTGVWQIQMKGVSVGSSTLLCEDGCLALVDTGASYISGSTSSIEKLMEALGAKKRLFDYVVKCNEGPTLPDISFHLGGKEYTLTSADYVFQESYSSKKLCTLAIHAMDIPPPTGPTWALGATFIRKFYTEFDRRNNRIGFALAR
UniProt P80209, 45-390 limits assumed: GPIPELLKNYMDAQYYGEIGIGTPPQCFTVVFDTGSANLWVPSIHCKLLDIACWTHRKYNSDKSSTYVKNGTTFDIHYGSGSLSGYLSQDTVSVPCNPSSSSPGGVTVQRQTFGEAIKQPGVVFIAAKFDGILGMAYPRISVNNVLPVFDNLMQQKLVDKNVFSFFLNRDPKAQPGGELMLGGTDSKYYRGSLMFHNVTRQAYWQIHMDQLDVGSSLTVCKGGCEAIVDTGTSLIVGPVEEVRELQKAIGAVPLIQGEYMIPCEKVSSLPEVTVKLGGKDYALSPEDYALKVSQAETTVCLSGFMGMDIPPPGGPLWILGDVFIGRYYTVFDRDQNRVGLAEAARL

One assay concerns the target Monkey Renin (Macaca fascicularis, UniProt Q6DLS0). Briefly: in vitro renin inhibitory activity, radioimmunoassay for angiotensin I. To be noted: read-out: IC50 (nM) Monkey Renin; renin incubated 2 hours at 37° with angiotensinogen; tested form: methanesulfonate hydrate. As to the method: An additional aspect of the present invention is a method for treating renin-associated congestive heart failure in a mammal which comprises administering a pharmaceutical composition containing an effective amount of a compound in combination with a pharmaceutically acceptable carrier to the mammal. The effectiveness of the aforementioned compounds is determined by a test for in vitro renin inhibitory activity. This activity is determined by a standard radioimmunoassay for angiotensin I. In this assay, the enzyme, renin, incubated for 2 hours at 37° in the presence of a substrate, angiotensinogen, generates the product, angiotensin I. Test compounds are added to the incubation mixture. Relative activity is reported as the IC50, which is the molar concentration of test compound, causing a 50% inhibition of the renin activity.

The next assay deals with Bovine Cathepsin D (Bos taurus, UniProt P80209). Briefly: cathepsin D inhibition (selectivity versus renin). To be noted: read-out: IC50 Bovine Cathepsin D; tested form: methanesulfonate hydrate.

What is called IC50 is the concentration needed to halve the response being measured. On to `C=CC[C@H](NC(=O)[C@H](Cc1ccccc1)NC(=O)CCc1cccnc1)C(=O)N[C@@H](CC1CCCCC1)C(=O)C(F)(F)C(=O)NCCN1CCOCC1`, for which the IC50 at Monkey Renin was 0.23 nM; at Bovine Cathepsin D it was 1600 nM.
